The results in this text go back to publication PMC7341485 (Chemical research in toxicology, 2019).

Counter-ions that a name gives are not always drawn. Like-named read-outs stand apart in the source and are kept apart here.

Data set [1] concerns TGFβ1-induced SMAD3 phosphorylation (pSMAD3 Ser 423/425).
The test system of data set [2] is human embryonic H9-derived neural stem cells (NSCs).

Consider `Cc1nc(Nc2ncc(C(=O)Nc3c(C)cccc3Cl)s2)cc(N2CCN(CCO)CC2)n1` [dasatinib], for which, in data set [1] (HepG2, 1 h, Figure 4), the “effect on TGFβ1-induced SMAD3 phosphorylation (pSMAD3 level), in words” value (“effect” for short) is listed as “pSMAD3 level was decreased”. For the same compound, the “cytotoxicity in NSCs at 5 h” value in data set [2] (5 h treatment) was “not at 5 h”.
For the compound `CN1CC[C@H](c2c(O)cc(O)c3c(=O)cc(-c4ccccc4Cl)oc23)[C@H](O)C1` [flavopiridol hydrochloride], in data set [2] (5 h treatment), the “cytotoxicity in NSCs at 5 h” value is “not at 5 h”. Besides, the “cytotoxicity in NSCs at 24 h” value in data set [2] (24 h treatment) is given as “invoked NSC cytotoxicity”.
As for `CN1C(=O)N(c2ccccc2Br)Cc2cnc(Nc3ccc4c(c3)OCC(CO)O4)nc21` (stereo not drawn) [PharmaGSID_48519], in data set [1], the “concentration eliminating / completely abolishing TGFβ1-elevated pSMAD3 level” value stood at 15 μM and the “effect” value is reported as “inhibited SMAD3 phosphorylation”. In data set [2], the “cytotoxicity in NSCs at 5 h” value is “not at 5 h”.
For `CC(C)n1nc(-c2cc3cc(O)ccc3[nH]2)c2c(N)ncnc21` [pp242], the “cytotoxicity in NSCs at 5 h” value in data set [2] is “not at 5 h”.
In the case of `C[C@@]12C(=O)OC(=O)[C@]1(C)[C@H]1CC[C@@H]2O1` [cantharidin, reference compound], the “effect” value in data set [1] is listed as “pSMAD3 level was decreased”.
